Tested on: HER2 high expression human breast cancer cell BT-474
Assay: Anti-tumor effect, combined use (BT-474 cancer-bearing nude mice)
Type: in vivo, mouse
Details: compound B4 20 mg/kg/day orally, divided into two per day, 14 days, trastuzumab 10 mg/kg intraperitoneally twice a week, 2 weeks, or both
From the text: Formula: Tumor volume=longer diameter×shorter diameter×shorter diameter×(1/2)

For trastuzumab [reference compound], the “growth rate T/C (%)” value was −17%.

Source: patent US20040138160A1, “Preventive/therapeutic method for cancer” (priority 2001, published 2004)
